Measured values from ChEMBL document CHEMBL1144351, “Synthesis, structure-activity relationship, and receptor pharmacology of a new series of quinoline derivatives acting as selective, noncompetitive mGlu1 antagonists” (J Med Chem, 2005).

The chains behind the UniProt entries cited, without tags or fusion partners. Where a name states a change or a piece, a line headed by the entry shows the natural chain unless it says otherwise.
UniProt P23385: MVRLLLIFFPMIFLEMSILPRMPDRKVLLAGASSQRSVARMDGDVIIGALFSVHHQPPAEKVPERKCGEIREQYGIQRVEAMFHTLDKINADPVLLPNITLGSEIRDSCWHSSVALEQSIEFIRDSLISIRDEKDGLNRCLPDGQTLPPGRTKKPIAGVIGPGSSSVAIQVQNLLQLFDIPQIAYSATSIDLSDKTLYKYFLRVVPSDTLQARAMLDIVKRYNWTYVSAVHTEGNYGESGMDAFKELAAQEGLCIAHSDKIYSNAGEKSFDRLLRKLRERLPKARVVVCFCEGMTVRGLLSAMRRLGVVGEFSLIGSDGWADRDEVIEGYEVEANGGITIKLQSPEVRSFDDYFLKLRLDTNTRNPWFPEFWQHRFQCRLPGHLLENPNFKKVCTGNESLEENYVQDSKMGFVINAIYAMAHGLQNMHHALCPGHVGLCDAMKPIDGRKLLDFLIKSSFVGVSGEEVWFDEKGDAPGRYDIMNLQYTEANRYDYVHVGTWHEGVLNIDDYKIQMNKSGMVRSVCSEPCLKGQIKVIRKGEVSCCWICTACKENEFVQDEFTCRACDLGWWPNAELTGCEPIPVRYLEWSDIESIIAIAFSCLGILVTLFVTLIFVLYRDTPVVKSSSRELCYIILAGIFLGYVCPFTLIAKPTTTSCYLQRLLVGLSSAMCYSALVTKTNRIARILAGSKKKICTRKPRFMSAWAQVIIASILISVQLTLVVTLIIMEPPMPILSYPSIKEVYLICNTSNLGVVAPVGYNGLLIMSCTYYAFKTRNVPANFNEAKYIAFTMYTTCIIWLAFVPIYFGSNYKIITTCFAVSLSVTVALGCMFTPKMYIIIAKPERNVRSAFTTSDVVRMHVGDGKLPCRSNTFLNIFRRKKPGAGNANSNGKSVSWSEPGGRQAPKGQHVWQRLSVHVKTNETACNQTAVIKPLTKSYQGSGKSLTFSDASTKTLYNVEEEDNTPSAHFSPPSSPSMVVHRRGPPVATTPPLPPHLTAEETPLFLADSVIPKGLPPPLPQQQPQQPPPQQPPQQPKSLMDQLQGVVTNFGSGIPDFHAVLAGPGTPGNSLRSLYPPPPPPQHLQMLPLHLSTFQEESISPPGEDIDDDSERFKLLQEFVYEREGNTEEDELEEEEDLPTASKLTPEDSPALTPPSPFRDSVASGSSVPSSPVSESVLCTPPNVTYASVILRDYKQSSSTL

molecular target: Metabotropic glutamate receptor 1 (Rattus norvegicus, UniProt P23385); experiment: Inhibitory concentration against rat metabotropic glutamate receptor 1
Summary of the method: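 Rat mGlu1a stably expressed in CHO-dhfr- cells grown in DMEM/GlutaMAX1 with 10% heat-inactivated dialyzed fetal calf serum, 0.4 mM L-proline and antibiotics. Inhibition of receptor activation was measured as intracellular Ca2+ rise on a fluorometric imaging plate reader. IC50 is the mean of two or three independent experiments.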

SMILES	IC50
CCCc1ccc2cc(C(=O)[C@H]3CC[C@@H](OC)CC3)ccc2n1	5 nM
CCc1cc2cc(C(=O)C3CCC(OC)CC3)ccc2nc1CC (stereo in doubt; trans)	65 nM
CCc1cc2cc(C(=O)[C@H]3CC[C@@H](OC)CC3)ccc2nc1F	4 nM
CO[C@H]1CC[C@@H](C(=O)c2ccc3nc4c(cc3c2)CCCN4C)CC1	8 nM
CO[C@H]1CC[C@@H](C(=O)c2ccc3nc4c(cc3c2)CCC4)CC1	4 nM
CCc1cc2cc(C(=O)C3CCC(OC)CC3)ccc2nc1CC (stereo in doubt; cis)	3 nM
CCc1cc2cc(C(=O)C3CCC(O)CC3)ccc2nc1C (configuration not stated)	50 nM
